Compound activity (PubChem)
Only some compounds are listed: those with a hit (about 1.7% of all), similar ones and a draw of the others.
PTHR1 ag: agonists of human PTHR1 parathyroid hormone receptor | Q03431 | HEK293 GP2 PTHR1 cells, GloSensor cAMP luminescence, 1 h | Potency, µM (titrated, usually from 115 µM), inactives show at the top dose activation, usual class: activators | 410,000 compounds, 0.075% hits | AID 743266; further: potency means the concentration at half of the fitted maximal effect; nearly all actives have a fitted effect of over 55% in size
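HEK-293-derived GP2 cells expressing PTHR1 and a GloSensor cAMP reporter, 3,000/well, plated overnight, given luciferin plus IBMX (each 0.5 mM as added) for 1 h at 37 °C, then compound for 1 h at 37 °C. Luminescence was read after 15 min at room temperature.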
GLP1R cytotox: cytotoxicity in counter-screen for GLP-1R inverse agonists; AID 624418; 410,000 compounds, 0.13% hits; HEK293 cAMP-luciferase reporter cells, luminescence, 24 h; Potency, µM (doses to about 38.3 µM), for inactives: top-dose activity change, negative = inhibition, hits mostly inhibitors;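 further: loss of luciferase light is scored as toxicity; potency means the concentration at half of the fitted maximal effect; on the % scale 0 is the no-effect control and ±100 the full control effect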
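Luminescence readout: signal drop marks cytotoxicity. Plated cells grew 12 h at 37 °C, 5% CO2, received 23 nL compound for 24 h, then got luciferase reagent, read after 12 min at RT.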
GLP-1R agonist: agonists of human GLP-1 receptor. HEK293 GLP-1R CRE-luciferase, luminescence, 4-6 h; cells express a hypersensitive GLP-1R form. AID 624172. Potency, µM (series often up to 45.6 µM), inactives show top-dose activation, actives largely listed as activators. 380,000 compounds, 0.007% hits; further: potency means the concentration at half of the fitted maximal effect; % of control where 0% means no effect
Pin1 inh: human Pin1 inhibition; Pin1 FP peptide displacement, HiFluor488, 10 min; Potency, µM (titrated, usually from 115 µM), for inactives: at the top dose activity, negative = inhibition, actives largely listed as inhibitors; 390,000 compounds, 0.009% hits; active means well fitted inhibition curve with a large enough effect in the polarisation, with a control signal flat, not every such curve was filed as active; inconclusive means small, poorly fitted or top-dose-only effect, or effect the other way, or a change in a side signal; inactive means no such curve, though single readings can be large or run the other way; the % refers to the polarisation; further: potency means the concentration at half of the fitted maximal effect; on the % scale 0 is the no-effect control and ±100 the full control effect
miR-21 reporter: raises the signal of a miR-21 reporter | HeLa miR-21 FLuc reporter, luciferase, 48 h | Potency, µM (highest dose often 38.3 µM), for inactives: at the highest dose reporter change, positive = more light | 340,000 tested, under 10 active | AID 2288; active = well fitted rising curve with a large enough effect; inconclusive = small, poorly fitted or top-dose-only effect; inactive = no such curve, though single readings can be large or run the other way;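 also: % of control where 0% means no effect; miR-21 action dims this reporter so a rising signal means less miR-21 action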
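HeLa miR-21-FLuc reporter line, endogenous miR-21; 2000 cells/well in DMEM/10% FBS; compound titration up to ~40uM final, 48 h, 37 degree Celsius; luciferase detection reagent, 15 min lysis, CCD luminescence.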
GLP-1R inv ag: acts as inverse agonist at human GLP-1 receptor; P43220; HEK293 GLP-1R CRE-luciferase, luminescence, 24 h; GLP-1R form is constitutively active; Potency, µM (top dose mostly 38.3 µM), inactives show at the top dose activity change, negative = inhibition, actives largely listed as inhibitors; 410,000 compounds, 1.6% hits; further: potency means the concentration at half of the fitted maximal effect; on the % scale 0 is the no-effect control and ±100 the full control effect; nearly all actives have a fitted effect of over 55% in size
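Inverse agonism was detected as reduced cAMP-driven luciferase luminescence after 24 h compound treatment. The cells were HEK293 clones expressing constitutively active human GLP-1R with the reporter. Reporter-only and GPR119 cell lines served as counterscreen controls.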
The depositor's hits bear a star; i = inactive; ? = inconclusive; . = not tested or not shown; [ ] = another dose, or the depositor's remark. Unless noted, the call rests on the fitted dose curve; in most records, active means well fitted curve in the direction sought with a large enough effect; inconclusive means small, poorly fitted or top-dose-only effect, or another doubt; inactive means no such curve, though single readings can be large; an effect the other way counts as inactive or inconclusive.

Sample of the layout:
SMILES	PTHR1 ag	GLP1R cytotox	GLP-1R agonist	Pin1 inh	miR-21 reporter	GLP-1R inv ag
O=C(NC(=S)Nc1ccc(Oc2ccc(Cl)cc2)cc1)c1ccccc1	-18%[57.5 µM]	?	-6%	-2%	12%	13µM*
CN(Cc1ccc(F)cc1)S(=O)(=O)c1nnc(NC(=O)c2ccc(F)cc2)s1	-29%	0%	.	3%	12%	-16%
O=c1oc2cc(OCc3c(F)cccc3Cl)ccc2cc1-c1ccccn1	-31%[57.5 µM]	-6%	-10%	-3%	-4%	7%
CCCOc1cccc(C(=O)Nc2ccc(-c3cc4ccccc4oc3=O)c(C)c2)c1	-19%	13%	.	14%	1%	4µM*

The listing, repeating the preview:
SMILES	PTHR1 ag	GLP1R cytotox	GLP-1R agonist	Pin1 inh	miR-21 reporter	GLP-1R inv ag
O=C(NC(=S)Nc1ccc(Oc2ccc(Cl)cc2)cc1)c1ccccc1	-18%[57.5 µM]	?	-6%	-2%	12%	13µM*
CN(Cc1ccc(F)cc1)S(=O)(=O)c1nnc(NC(=O)c2ccc(F)cc2)s1	-29%	0%	.	3%	12%	-16%
O=c1oc2cc(OCc3c(F)cccc3Cl)ccc2cc1-c1ccccn1	-31%[57.5 µM]	-6%	-10%	-3%	-4%	7%
CCCOc1cccc(C(=O)Nc2ccc(-c3cc4ccccc4oc3=O)c(C)c2)c1	-19%	13%	.	14%	1%	4µM*
CCCOc1ccc2cc(-c3ccccn3)c(=O)oc2c1	-22%	41%	-3%	-2%	5%	2.8µM*
COCCCNC(=O)c1ccc(Cn2c(=O)c3cccn3c3cccnc32)cc1	11%	-23%	.	6%	17%	-27%
Cc1nc(SCc2cccc(C(=O)O)c2)nc2c1CCCC2	-24%	0%	-1%	-13%	12%	8.9µM*
COc1ccc(-c2cc(C)nc(SCc3cccc(C(=O)O)c3)n2)cc1	i	-12%	11%	6%	-8%	24%
CC(=O)Nc1ccc(S(=O)(=O)Nc2ccc(C)c(C)c2)cc1	.	.	.	-2%	.	.
Cc1c(C)n(CCCN(C)C)c2ncnc(Nc3ccccc3)c12	-14%	-2%	4%	-7%	-19%	?
Cc1c(C)n(CCCN(C)C)c2ncnc(NC3CCCCC3)c12	i	-30%	33%	6%	-18%	4µM*
COc1ccccc1Nc1ncnc2c1c(C)c(C)n2CCCN(C)C	-22%	55%	2%	0%	-6%	2.2µM*
COc1ccc(Nc2ncnc3c2c(C)c(C)n3CCCN(C)C)cc1	i	-10%	7%	-5%	-53%	11µM*
CC(C)Cn1c(-c2cccs2)nc2nc3ccccc3nc21	-22%[57.5 µM]	148%	8%	4%	16%	4µM*
C[C@@H](CO)NC(=O)c1ccc2c3n(nc2c1)-c1ccccc1CO3	-89%	-50%	-5%	3%	18%	3.5µM*
Fc1cc(F)cc(Nc2nc(NC3CCCC3)nc(C3CO3)n2)c1 (stereo not given)	.	.	.	3%	.	.
CCSc1ncc(/C=N/Nc2ccc(Cl)cc2)n1C	i	3%	15%	-2%	-36%	?
CCSc1ncc(/C=N/Nc2ccccc2)n1C	-3%	?	14%	-12%	-23%	3.5µM*
O=C(Nc1ccncc1)C1C(=O)c2ccccc2N(Cc2ccccc2)C1=O (stereo not given)	.	.	.	-12%	.	.
c1ccc(CCSc2nccn2-c2ccccc2)cc1	-58%[57.5 µM]	4%	7%	10%	-63%	?
CCc1ccc(CSc2nccn2-c2ccccc2)cc1	-4%[57.5 µM]	0%	15%	-13%	-8%	6.3µM*
CCOC(=O)c1sc2ccccc2c1S(=O)(=O)Nc1c(C)cccc1C	-13%	-12%	.	2%	26%	?
Cc1cccc(C)c1NC(=O)C(C)c1ccc(-c2ccccc2)c(F)c1 (stereo not given)	-14%[57.5 µM]	-4%	-13%	0%	7%	10µM*
Brc1ccc2c(c1)-c1ccccc1C1=NCCN12	-5%	?	-12%	.	.	?
Clc1ccc2c(c1)-c1ccccc1C1=NCCN12	i	?	-11%	.	.	4µM*
Cc1ccc(C(=O)Nc2cccc(C(=O)NCc3ccccc3)c2)cc1	-1%	1%	-23%	-1%	2%	13µM*
Cc1ccc(C(=O)Nc2ccc3ccccc3c2)cc1	-34%	-13%	0%	3%	15%	5µM*
Cc1ccccc1C(=O)Nc1cccc(NC(=O)c2ccc(F)cc2)c1	i	1%	10%	-3%	5%	10µM*
COc1ccc(C(=O)Nc2cccc(C(=O)NCc3ccccc3)c2)cc1	-22%	-23%	3%	1%	-3%	-29%
CC(=O)c1cccc(NC(=S)NCc2ccccc2)c1	-36%	7%	7%	-2%	-1%	4%
CCOC(=O)c1cccc(NC(=S)NCc2ccc(C)cc2)c1	-19%	-32%	7%	-1%	-4%	7.9µM*
O=C(Nc1ccc2ccccc2c1)c1ccc(Cl)cc1	-39%	-5%	-2%	-1%	-28%	-25%
O=C(Nc1cccc(NC(=O)c2ccccc2Cl)c1)c1ccc(F)cc1	-89%	5%	3%	4%	-3%	?
CC(C)CCNC(=O)c1ccc2nc(CCc3ccccc3)oc2c1	i	-3%	.	33%	-22%	2%
O=S(=O)(c1ccc2ccccc2c1)N1CCN(c2nc(-c3ccccc3)nc3ccccc23)CC1	.	.	.	3%	.	.
COc1cccc(OCc2cc(C3Nc4ccccc4C(=O)N3c3ccccc3)ccc2OC)c1 (stereo not given)	.	.	.	13%	.	.
COc1ccccc1NC(=O)CSc1nncn2c1cc1sccc12	-23%	-4%	.	14%	-1%	-5%
CCC1CN(C(=O)NCc2cccc(OC)c2)c2cc(Cl)ccc2O1 (stereo not given)	-2%	0%	13%	-1%	-1%	11µM*
CCC1CN(C(=O)NCc2ccc(F)cc2)c2cc(Cl)ccc2O1 (stereo not given)	-51%	2%	5%	7%	9%	10µM*
C=CCC1(CC=C)CCCN1C(=O)c1cc(COc2cccc(C(F)(F)F)c2)on1	-72%	-5%	4%	4%	11%	10µM*

A different layout for part of the listing above:
molecule,PTHR1 ag,GLP1R cytotox,GLP-1R agonist,Pin1 inh,miR-21 reporter,GLP-1R inv ag
Fc1cc(F)cc(Nc2nc(NC3CCCC3)nc(C3CO3)n2)c1 (stereo not given),.,.,.,3%,.,.
CCSc1ncc(/C=N/Nc2ccc(Cl)cc2)n1C,i,3%,15%,-2%,-36%,?

Further results
SMILES	PTHR1 ag	GLP1R cytotox	GLP-1R agonist	Pin1 inh	miR-21 reporter	GLP-1R inv ag
O=C(c1cc(COc2cccc(C(F)(F)F)c2)on1)N1CCCC1	-26%	0%	-5%	.	.	-6%
COc1ccccc1N1CCN(C(=O)c2cc(-c3ccc(F)cc3)[nH]c2C)CC1	-25%	?	0%	-3%	22%	11µM*
Cc1cc(C)nc(-n2nc(C)cc2NC(=O)CN2CCCC2)n1	3%	?	8%	-1%	-4%	?
Cc1cc(C)nc(-n2nc(C)cc2NC(=O)CN2CCC(C)CC2)n1	-19%	5µM*	17%	0%	-1%	?
Cc1ccc(C)c(C(=O)Nc2cc(C)nn2-c2nc(C)cc(C)n2)c1	i	1.8µM*	6%	4%	-5%	?
CCN(Cc1nc(-c2ccc(OC)c(OC)c2)no1)S(=O)(=O)c1ccc(OC)cc1	-8%	20%	.	-1%	6%	14%
Cc1ccc(S(=O)(=O)N(CC(=O)Nc2cccnc2)c2cccc([N+](=O)[O-])c2)cc1	-22%	?	15%	-3%	16%	?
Cc1ccc(S(=O)(=O)N(CC(=O)Nc2cccnc2)c2cccc(Br)c2)cc1	i	0%	4%	11%	21%	4.5µM*
